Patent US10106557B2, “Preparation method for benzoxazoleoxazine ketone compound and intermediate and crystal form thereof” (NORTH CHINA PHARMACEUTICAL NEW DRUG R & D CO., LTD., priority 2014, dated 2018)

By UniProt entry, the sequences of proteins in these tests, tags left out. Residues count along the entry.
UniProt P00742, 41-179: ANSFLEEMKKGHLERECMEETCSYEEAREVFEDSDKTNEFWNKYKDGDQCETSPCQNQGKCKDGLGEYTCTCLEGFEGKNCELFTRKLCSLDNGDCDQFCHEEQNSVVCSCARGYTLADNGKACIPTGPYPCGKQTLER
UniProt P00742, 235-488: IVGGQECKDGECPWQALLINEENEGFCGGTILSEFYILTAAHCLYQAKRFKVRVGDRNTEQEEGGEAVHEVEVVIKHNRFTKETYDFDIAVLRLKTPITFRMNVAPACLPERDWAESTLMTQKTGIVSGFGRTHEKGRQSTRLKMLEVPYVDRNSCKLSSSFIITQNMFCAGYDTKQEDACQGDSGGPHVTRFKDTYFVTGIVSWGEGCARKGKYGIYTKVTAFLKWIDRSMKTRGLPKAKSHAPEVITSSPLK

Assays:
[1] = biological target: human coagulation factor Xa (Homo sapiens (Human), UniProt P00742); assay: Human coagulation factor Xa chromogenic assay; type: biochemical; settings: purified enzyme, substrate S-2222, 37° C.; Ki from IC50 by Cheng-Prusoff; read-out: hfXa Ki
Method: The inhibitory ability of the compounds to be tested on Xa factor or other enzymes, such as thrombin or trypsin, in human or rats were determined by IC50 values, wherein the IC50 value was associated with the inhibition constant Ki. The purified enzyme was used in the chromogenic determination. The initial rate of hydrolysis of the chromogenic substrate was determined by the variation of absorbance at 405 nm in the linear part on time (usually 2 to 10 minutes after the addition of the substrate) at 37° C. by using FlexStation III (USA Molecular Instruments). By plotting a curve regarding the relative velocity of the hydrolysis (compared to the control group which was free of inhibition) on the logarithm of the concentration of the compounds and linear regression calculation, the concentration of the inhibitor leading to a 50% reduction of the rate of the hydrolysis of the substrate was determined. The enzyme inhibition constant (Ki) was calculated according to Cheng-Prusoff equation: Ki=IC50/(1+[S]/Km), where [S] was the substrate concentration and Km was the meter-Mann's constant determined by the double reciprocal mapping method. The IC50 values of the compounds were obtained by GraphPad Prism software. […]
The inhibitory activity on coagulation factor Xa activity in human or rats was measured by using Tris-HCl buffer (50 mM, pH 8.3, 150 mM NaCl). […]

prothrombinase = prothrombinase (Homo sapiens (Human), UniProt P00742); assay: Prothrombin assay (prothrombinase, thrombin production); type: biochemical; settings: human factor Xa, human blood platelets, substrate S-2238
Method: The inhibitory ability of the compounds to be tested on Xa factor or other enzymes, such as thrombin or trypsin, in human or rats were determined by IC50 values, wherein the IC50 value was associated with the inhibition constant Ki. The purified enzyme was used in the chromogenic determination. The initial rate of hydrolysis of the chromogenic substrate was determined by the variation of absorbance at 405 nm in the linear part on time (usually 2 to 10 minutes after the addition of the substrate) at 37° C. by using FlexStation III (USA Molecular Instruments). By plotting a curve regarding the relative velocity of the hydrolysis (compared to the control group which was free of inhibition) on the logarithm of the concentration of the compounds and linear regression calculation, the concentration of the inhibitor leading to a 50% reduction of the rate of the hydrolysis of the substrate was determined. The enzyme inhibition constant (Ki) was calculated according to Cheng-Prusoff equation: Ki=IC50/(1+[S]/Km), where [S] was the substrate concentration and Km was the meter-Mann's constant determined by the double reciprocal mapping method. The IC50 values of the compounds were obtained by GraphPad Prism software. The curve is fitted by using the “shaped dose effect (variable slope)”.
The activity of the compound to be tested against prothrombinase was determined by the production of thrombin. […]

`O=C(NC[C@@H]1OC(=O)N2c3ccc(N4CCCCC4=O)cc3OC[C@@H]12)c1ccc(Cl)s1` [Compound 2] showed a Ki [1] of 1.93 nM and a Ki (prothrombinase) of 4.22 nM.
